The values below are quoted from earlier work in patent US20040132819A1, “Appetite control method” (priority 2002, published 2004).

Amino acid sequences for entries named in this document (tags omitted).
UniProt P47746, whole entry: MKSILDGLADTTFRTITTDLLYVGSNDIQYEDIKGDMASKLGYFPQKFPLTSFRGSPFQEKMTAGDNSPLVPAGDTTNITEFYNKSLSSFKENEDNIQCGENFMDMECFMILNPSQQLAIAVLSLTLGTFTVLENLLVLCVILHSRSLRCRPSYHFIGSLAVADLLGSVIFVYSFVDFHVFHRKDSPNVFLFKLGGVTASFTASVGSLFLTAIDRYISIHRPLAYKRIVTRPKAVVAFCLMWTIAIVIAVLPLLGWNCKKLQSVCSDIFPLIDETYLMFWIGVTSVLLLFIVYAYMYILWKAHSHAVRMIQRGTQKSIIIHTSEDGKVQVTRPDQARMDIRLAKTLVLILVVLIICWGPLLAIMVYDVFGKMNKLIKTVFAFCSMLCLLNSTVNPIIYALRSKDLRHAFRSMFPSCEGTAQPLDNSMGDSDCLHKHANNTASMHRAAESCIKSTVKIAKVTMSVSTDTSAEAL

Structures are written as SMILES.

In this data set the target is CB1 receptor (Mus musculus, UniProt P47746). To be noted: co-administered with SR141716A, through day 8; cited from earlier work.

On to `CCCCCc1cc(O)c2c(c1)OC(C)(C)[C@@H]1CCC(C)=C[C@@H]21` [Δ^9-THC, Δ^9-tetrahydrocannabinol], for which the “weight gain on co-administration with the antagonist” value was “slight increases in weight gain”.
